Experimental data published in publication PMC11513854, “De novo GTP synthesis is a metabolic vulnerability for the interception of brain metastases” (Cell Reports Medicine, 2024).

System: MDR1-MDCKII cells
Test: Bi-directional permeability via MDR1-MDCKII cells
Assay type: in vitro ADME
Protocol: MDR1-MDCKII permeability assays were performed by Wuxi AppTec Co. Briefly, MDR1-MDCK1 cells were seeded onto polycarbonate membranes in 96-well insert system plates and allowed to develop into monolayers. […] The plate was incubated for 2.5 h (37°C, 5% CO2) and the media was sampled on either side and the compound present was quantified by LC-MS/MS and the concentrations were used to calculate the efflux ratio. Digoxin (10 μM), nadolol (2 μM), and metoprolol (2 μM) were used as controls.

COc1c(C)c2c(c(O)c1C/C=C(\C)CCC(=O)O)C(=O)OC2 [MPA, Mycophenolic acid]
Rank of Papp: High | permeability for entering the brain (MDCK-MDR1 cell monolayer model): high permeability
